43 molecules from PubChem BioAssay AID652163 (Broad Institute, 2013) can be followed below.

Protein sequences, listed by entry. Tags and fused reporters are not part of them. Lines headed by an entry give the natural chain unless they say otherwise; changes in a name come on top.
UniProt P26447: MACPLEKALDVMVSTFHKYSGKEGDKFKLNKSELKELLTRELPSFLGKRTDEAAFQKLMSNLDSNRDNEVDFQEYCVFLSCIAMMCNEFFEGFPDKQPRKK

Only a part is listed here, and it is no random draw. The source made the active and inactive calls.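 The calls were made as follows: active = mean inhibition of at least 70% across replicates, with every replicate also reaching that level; inconclusive = mean inhibition reaches 70% but some replicates fall short; inactive = mean inhibition below 70%.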

By inhibition is commonly meant the relative decrease from the control value, in per cent.

This assay concerns the target Protein S100-A4 (Homo sapiens) (UniProt P26447). Description: human S100A4 protein-peptide interaction blockers – biochemical, fluorescence polarization, TAMRA-MyoIIA peptide, primary screen (AID 652163). Conditions: at 10.7 µM, hits give high values.
Take `CCN(/C(=N/P(=O)(N1CCOCC1)N1CCOCC1)N1CCOCC1)c1ccc(OC)cc1`: the inhibition is inactive: 0.101%.
Then `Nc1ccc([As](=O)(O)c2ccc(N)cc2)cc1`, with inactive: -8.89%.
To `C[N+]1=C2C=CC=CC=C2SC12C([N+](=O)[O-])=CC([N+](=O)[O-])=C[C-]2[N+](=O)[O-]` (stereo not drawn) belongs inactive: -9.15%.
To `c1cc(-c2nn[nH]n2)ccc1-c1nn[nH]n1` belongs inactive: -4.44%; to `CC(C)=N/N=C(\N)N[N+](=O)[O-]`, inactive: -5.7%; to `CC(C)c1nc(Nc2ccccc2)n(P(=O)(N(C)C)N(C)C)n1`, inactive: 2.09%.
In the case of `COc1ccc(C2=NCC(CBr)S2)cc1` (stereo not drawn), the inhibition is inactive: -0.298%.
Then `Cc1ccc(NP(=O)(Oc2ccccc2)Oc2ccccc2)nc1`, with inactive: 6.01%; and `O=[N+]([O-])c1cc([N+](=O)[O-])c(CCNc2ccccc2)c([N+](=O)[O-])c1`, with inactive: -3.49%.
On to `O=[As](O)(c1ccccc1)c1ccc(O)cc1`, for which the inhibition was inactive: 4.75%.
As to `CC(=O)NC(SC(=S)N(C)C)C(Cl)(Cl)Cl` (stereo not drawn), the inhibition is inactive: -0.926%.
For the molecule `O=[N+]([O-])c1ncn(CCn2cnc([N+](=O)[O-])n2)n1`, the inhibition is inactive: -0.0015%.
Regarding `C/C(N)=N\P(=O)(OCc1ccccc1)OCc1ccccc1`, the inhibition was inactive: -2.65%.
Turning to `Nc1ccc([As](=O)(O)c2ccc([N+](=O)[O-])cc2)cc1`, the inhibition was inactive: 2.7%.
To `C(Cc1nn[nH]n1)Cc1nn[nH]n1` belongs inactive: -7.09%; to `O=P(Nc1ccccn1)(c1ccc(Br)cc1)c1ccc(Br)cc1`, inactive: 15.9%; to `CN(C)C1(CNC(=O)c2ccc(Cl)c(S(N)(=O)=O)c2)CCCCC1`, inactive: 4.89%.
In the case of `Nc1ccc(CCCCOc2ccccc2)cc1`, the inhibition was inactive: -11.8%.
For `COc1ccc(N)c([N+](=O)[O-])c1[N+](=O)[O-]`, the inhibition is inactive: 1.13%.
Regarding `O=P(Nc1nc2ccccc2s1)(c1ccccc1)c1ccccc1`, the inhibition was inactive: -7.6%.
Consider `C[C@H]1OP(=O)(Oc2ccccc2)[C@H](O)[C@H](O)[C@H]1N=[N+]=[N-]` (stereo partly drawn), for which the inhibition is inactive: -3.96%.
`O=C(OC1CN2CCC1CC2)c1ccccc1` (stereo not drawn): the inhibition was inactive: -1.86%.
With `Cc1ccc(OP(=O)(Nc2ccccn2)Oc2ccc(C)cc2)cc1`, the inhibition is inactive: 5.18%.
`Cc1ccccc1OP(=O)(Nc1ccccn1)Oc1ccccc1C`: the inhibition was inactive: -0.82%.
With `CC(NC(=O)COC(=O)C(O)(c1ccccc1)c1ccccc1)c1ccccc1` (stereo not drawn), the inhibition is inactive: -4.02%.
To `CN(C)C(=O)Oc1noc2ccccc12` belongs inactive: -7.35%.
Regarding `O=c1c2cc([N+](=O)[O-])ccc2[nH]c2c([N+](=O)[O-])cc([N+](=O)[O-])cc12`, the inhibition is inactive: -9.82%.
To `c1ccc(-c2nn[nH]n2)c(-c2nn[nH]n2)c1` belongs inactive: 0.386%; to `Cc1ccc(NP(=O)(Oc2cccc(C)c2)Oc2cccc(C)c2)nc1`, inactive: -2.65%.
Consider `CCNC(=S)/N=C(\N)N[N+](=O)[O-]`, for which the inhibition is inactive: 2.47%.
With `O=C(NC1CCS(=O)(=O)C1)NP(=S)(Oc1ccccc1)Oc1ccccc1` (stereo not drawn), the inhibition was inactive: -0.957%.
Take `O=P1(N(CCCl)CCCl)OCCC2CCCCN21` (stereo not drawn): the inhibition is inactive: -2.73%.
Regarding `Cc1ccccc1CN(C)C(=O)COC(=O)C(O)(c1ccccc1)c1ccccc1`, the inhibition was inactive: -0.214%.
Then `C[C@@H]1C=CCP(=O)(Oc2ccccc2)O1` (stereo partly drawn), with inactive: 0.3%; and `C[C@H]1OP(=O)(Oc2ccccc2)C[C@@H]2O[C@@H]21` (stereo partly drawn), with inactive: -0.887%; and `N#C/C(=C\c1ccc(N(CCBr)CCBr)cc1)C(N)=O`, with inactive: -3.05%.
With `CC(=O)c1ccc(N2CC2c2ccncc2)cc1` (stereo not drawn), the inhibition is inactive: 8.81%.
`COC(=O)C1(C)COP(=O)(NCc2ccccc2)OC1` (stereo not drawn): the inhibition is inactive: -0.396%.
Take `CC(=O)Nc1ccc([As](=O)(O)O)c(O)c1`: the inhibition was inactive: -1.05%.
Take `CC(=O)Nc1ccc(Oc2c([N+](=O)[O-])cc([N+](=O)[O-])cc2[N+](=O)[O-])cc1`: the inhibition is inactive: 3.61%.
To `CCOc1ccc(C2=NCC(CBr)S2)cc1` (stereo not drawn) belongs inactive: -2.52%.
Regarding `CC(C)(C)C(=O)NC(Sc1ccccc1)C(Cl)(Cl)Cl` (stereo not drawn), the inhibition is inactive: -4.53%.
On to `CCc1cc(O)c([N+](=O)[O-])c(C)c1[N+](=O)[O-]`, for which the inhibition was inactive: -20%.
